## Yeast mating assay 2: variants of the scFv Ab-95

Source: Engelhart et al. 2022 (doi:10.1038/s41597-022-01779-4), MIT Lincoln Laboratory and A-Alpha Bio; data file from the FLAb repository.

The target is the same throughout: PDVDLGDISGINAS, from the HR2 region of SARS-CoV-2 spike.

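The starting antibody came from a phage panning campaign against this peptide. Library AAYL52 holds single substitutions and randomly drawn double and triple substitutions in the CDRs. In AlphaSeq, yeast of one mating type display the scFv and yeast of the other type display the target. After mating in shaken culture at 30 °C for 16 h, diploids were selected and their barcode pairs sequenced. Read counts were normalised to the haploid input and turned into Kd by a linear fit to BCL2-family pairs of known affinity, for each replicate. The assay was run in three technical replicates.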

Parent: Ab-95, a human scFv built as VH, the linker GGGGSGGGGSGGGGS, VL. Only the CDRs of the light chain vary.
VH: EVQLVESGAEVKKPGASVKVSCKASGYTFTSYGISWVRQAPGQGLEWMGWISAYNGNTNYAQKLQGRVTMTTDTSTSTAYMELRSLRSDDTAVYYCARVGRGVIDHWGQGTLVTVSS
VL: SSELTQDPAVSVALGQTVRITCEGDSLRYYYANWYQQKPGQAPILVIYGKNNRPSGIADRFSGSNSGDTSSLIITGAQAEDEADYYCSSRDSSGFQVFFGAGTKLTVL

Positions count from residue 1 of the parent VL; D25K puts K in place of D.
Every variant below is changed at F98 of the VL (sequential numbering).
Values are apparent Kd, the geometric mean of the replicates that gave a signal; lower means stronger binding.
"no signal" marks a missing value. The strain was present, yet no cells mated with the target were sequenced in any replicate, which points to weak or no binding.

With D25K+K50Q+F98C the result was 96 nM (3 of 3 replicates; controls 3 of 9). Variant S26D+S89N+F98W showed 1.4 µM (2 of 3 replicates; controls 1 of 9). With S92H+F98A the result was 290 nM (3 of 3 replicates; controls 1 of 9). With G24S+F98R the result was 840 nM (3 of 3 replicates; controls 3 of 9). Variant L27R+A32R+F98V showed 3.4 µM (3 of 3 replicates; controls 1 of 9). Variant R53C+S55H+F98H gave 5.4 µM (3 of 3 replicates; controls 6 of 9). Variant K50N+F98Y showed 130 nM (3 of 3 replicates; controls 5 of 9).

With K50A+D91L+F98M the result was 71 µM (1 of 3 replicates; controls 1 of 9). For Y29E+N52R+F98Q, the assay gave 3.9 µM (2 of 3 replicates; controls 3 of 9). Variant N51L+V97I+F98L gave no signal (0 of 3 replicates; controls 2 of 9). With F98E the result was 100 nM (3 of 3 replicates; controls 3 of 9). Variant G49L+K50C+F98W gave 1.2 µM (1 of 3 replicates; controls 0 of 9). For S93Y+G94F+F98Y, the assay gave no signal (0 of 3 replicates; controls 1 of 9). For N51V+F98K, the assay gave no signal (0 of 3 replicates; controls 0 of 9).

With G49D+S89M+F98I the result was 920 nM (3 of 3 replicates; controls 0 of 9). With N33S+P54K+F98Y the result was 1.5 µM (3 of 3 replicates; controls 3 of 9). Variant D25C+R90D+F98S gave no signal (0 of 3 replicates; controls 0 of 9). For Y29A+S88G+F98L, the assay gave 540 nM (3 of 3 replicates; controls 5 of 9). For D25L+F95K+F98T, the assay gave 390 nM (3 of 3 replicates; controls 5 of 9). Variant R28Y+Q96L+F98W gave 11 µM (2 of 3 replicates; controls 3 of 9). Variant D25E+S93N+F98L gave 670 nM (2 of 3 replicates; controls 0 of 9).

Variant E23N+S55R+F98R gave 130 µM (1 of 3 replicates; controls 1 of 9). Variant S93N+F95P+F98L showed no signal (0 of 3 replicates; controls 0 of 9). With G24M+D91P+F98V the result was 8.2 µM (3 of 3 replicates; controls 2 of 9). Variant N52W+S55A+F98D showed 1.6 µM (3 of 3 replicates; controls 2 of 9). Variant N33R+S93N+F98R showed 8.1 µM (2 of 3 replicates; controls 1 of 9). Variant S89W+F98P gave 86 nM (3 of 3 replicates; controls 2 of 9). Variant S26A+N33F+F98P showed 31 µM (1 of 3 replicates; controls 2 of 9).

Variant Y31P+S89V+F98K gave 210 nM (3 of 3 replicates; controls 2 of 9). Variant Y30G+N52M+F98W showed 7.7 nM (3 of 3 replicates; controls 1 of 9). For S26T+S88D+F98E, the assay gave 75 µM (2 of 3 replicates; controls 2 of 9). For E23C+S89R+F98P, the assay gave no signal (0 of 3 replicates; controls 0 of 9). With G24D+S92I+F98T the result was 10 µM (3 of 3 replicates; controls 2 of 9). For N51Y+N52P+F98K, the assay gave 8.1 µM (1 of 3 replicates; controls 1 of 9). For R28L+V97S+F98G, the assay gave 3.5 µM (3 of 3 replicates; controls 5 of 9).

Variant D91E+F98K showed 5.4 µM (2 of 3 replicates; controls 1 of 9). For S26K+L27K+F98T, the assay gave 11 µM (1 of 3 replicates; controls 1 of 9). For S93L+F98Q, the assay gave 34 µM (3 of 3 replicates; controls 2 of 9). Variant F98Q showed 150 nM (3 of 3 replicates; controls 1 of 9). With K50M+R53G+F98N the result was no signal (0 of 3 replicates; controls 0 of 9). Variant S26T+R53D+F98A showed no signal (0 of 3 replicates; controls 1 of 9). Variant G49I+S88Y+F98I showed 13 µM (2 of 3 replicates; controls 0 of 9).

For E23V+L27H+F98M, the assay gave 34 µM (2 of 3 replicates; controls 1 of 9). Variant A32I+P54W+F98K gave 68 µM (1 of 3 replicates; controls 1 of 9). For S26L+R90I+F98C, the assay gave 52 µM (1 of 3 replicates; controls 3 of 9). With N51A+F95I+F98Y the result was 860 nM (3 of 3 replicates; controls 4 of 9). Variant G24A+K50D+F98P gave 360 nM (3 of 3 replicates; controls 2 of 9). Variant N33P+S55I+F98T gave 28 µM (2 of 3 replicates; controls 2 of 9). With S55H+D91V+F98R the result was 2.3 µM (3 of 3 replicates; controls 1 of 9).

For N52H+D91S+F98D, the assay gave 900 nM (3 of 3 replicates; controls 4 of 9). With G24H+N52P+F98H the result was 4.4 µM (3 of 3 replicates; controls 2 of 9). For Y29A+G49E+F98M, the assay gave 1.5 µM (1 of 3 replicates; controls 2 of 9).

A selection of 6 entries from above:

changes	Kd (apparent)	seen in	control signals
N51V+F98K	no signal	0/3	0/9
G24S+F98R	840 nM	3/3	3/9
S92H+F98A	290 nM	3/3	1/9
S55H+D91V+F98R	2.3 µM	3/3	1/9
G49I+S88Y+F98I	13 µM	2/3	0/9
N33P+S55I+F98T	28 µM	2/3	2/9

In this assay the parent's reference entry averaged 200 nM; its copy inside this library read 180 nM.
Three control strains display no target. For library AAYL52, 28% of the pairings with them gave a signal, with a median of 8.2 µM and one signal in twenty below 800 nM, so weak values seen in few replicates may be background. Also given: how often the same scFv was detected with the empty control strains.